Measured values as given in ChEMBL document CHEMBL1125338, “Synthesis, chemical, and biological properties of vinylogous hydroxamic acids: dual inhibitors of 5-lipoxygenase and IL-1 biosynthesis” (J Med Chem, 1992).

Molecular target: T1, Polyunsaturated fatty acid 5-lipoxygenase (Rattus norvegicus, UniProt P12527)
T1 sequence (P12527 whole entry): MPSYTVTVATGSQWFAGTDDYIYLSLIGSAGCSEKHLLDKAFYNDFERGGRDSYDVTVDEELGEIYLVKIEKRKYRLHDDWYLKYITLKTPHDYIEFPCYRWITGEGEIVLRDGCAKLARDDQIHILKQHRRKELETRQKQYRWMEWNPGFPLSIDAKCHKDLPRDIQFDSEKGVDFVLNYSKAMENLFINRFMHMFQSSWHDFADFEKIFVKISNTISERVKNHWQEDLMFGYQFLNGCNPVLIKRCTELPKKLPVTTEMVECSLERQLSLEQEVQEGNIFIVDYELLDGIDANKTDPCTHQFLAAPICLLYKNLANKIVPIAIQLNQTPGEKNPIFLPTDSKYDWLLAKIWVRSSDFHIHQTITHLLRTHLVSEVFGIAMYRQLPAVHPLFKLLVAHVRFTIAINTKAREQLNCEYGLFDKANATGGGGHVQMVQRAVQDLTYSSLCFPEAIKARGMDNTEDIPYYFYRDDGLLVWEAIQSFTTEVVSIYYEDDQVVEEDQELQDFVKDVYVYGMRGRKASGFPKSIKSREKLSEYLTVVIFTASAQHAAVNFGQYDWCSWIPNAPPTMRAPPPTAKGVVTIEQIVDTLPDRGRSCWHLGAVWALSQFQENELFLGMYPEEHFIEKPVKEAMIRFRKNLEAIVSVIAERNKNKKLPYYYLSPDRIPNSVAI
Experiment: inhibitory activity against 5-lipoxygenase in rat basophilic leukemia cell line.
Type: cell-based, RBL-1

- pIC50: 7.22
Compound: CN(O)/C=C\C(=O)c1ccc(-c2ccccc2)cc1

pIC50: −log10 of the molar value.
